This series in a line: Pharmacokinetics in plasma after single bolus intravenous administration to rats. The note with it: for AUC(0-inf) / AUC(0-t) / Cmax / Tmax: Time to Cmax / clearance / half-life / Vd: rat, iv; for Vd: read-out: Vdss: Volume of distribution at steady state. It is filed as in vivo, Sprague Dawley rats. Here is the method:
GLP-1 (9-36) analogues containing C-terminal extensions (FIG. 2) were tested in 9 week old male Sprague Dawley rats to evaluate biological half-life as well as other pharmacokinetic properties of the analogues. Rats used in the study were acclimated to laboratory conditions for approximately 1 week prior to testing. Polypeptide analogues were prepared as solutions for intravenous administration (bolus injection in the jugular vein) at concentrations of 0.15 mg/mL and 1.5 mg/mL in appropriate buffers. The compounds were then injected while the animals were still under anesthesia. Blood samples were taken form each animal at no more than 5 occasions. Following dose administration, blood samples (0.3 to 0.4 mL) were obtained by jugular venipuncture (lithium heparin was used as an anticoagulant) at selected time points (0, 2.5, 5, 10 and 15 minutes or 30, 45, 60, 120 and 240 minutes). The samples were analyzed for parent drug by LC-MS/MS. Numerical data was subjected to calculation of group mean values, standard deviations and coefficients of variation (expressed as a percent), where appropriate. The pharmacokinetic analysis (non-compartmental) of plasma concentration was performed using the PhAST software program (Version 2.3-004, Pheonix International Life Sciences Inc.). The highest experimental concentration was considered the peak concentration (Cmax; observed value). Whenever possible, the observed terminal phase rate constant (Kel) was calculated from the terminal 3 or more points (non-zero and non-Cmax points) of the log-linear regression. The number of points included in the regression analysis was such as to optimize r^2 value calculated for the regression. Terminal phase half-life (t1/2) was determined by dividing 0.693 by Kel. The area under the plasma concentration of each compound versus time-curve from time zero to the last quantifiable concentration (AUC0-t) was calculated by the linear trapezoidal method (Bailer, A. J., (1988) J. Pharmacokin. Biopharm., 1, 303-309). AUC0-∞, the area under the plasma concentration versus time curve from time zero to infinity, was calculated as the sum of AUC0-t plus the ratio of the last plasma concentration to Kel. Values below the limit of quantification were assigned a value of zero for pharmacokinetic analysis.

Where [1] appears, read: male, Sprague Dawley, in vivo, 0.15 mg/kg.
The mark [2] stands for this setting: male, Sprague Dawley, in vivo, 1.5 mg/kg.

Read-outs that look alike come from different tables or passages of the source.

The clearance is the rate of elimination divided by the concentration.

Turning to `CC[C@H](C)[C@H](NC(=O)[C@H](Cc1ccccc1)NC(=O)[C@H](CCC(=O)O)NC(=O)[C@H](CCCCN)NC(=O)[C@H](C)NC(=O)[C@H](C)NC(=O)[C@H](CCC(N)=O)NC(=O)CNC(=O)[C@H](CCC(=O)O)NC(=O)[C@H](CC(C)C)NC(=O)[C@H](Cc1ccc(O)cc1)NC(=O)[C@H](CO)NC(=O)[C@H](CO)NC(=O)[C@@H](NC(=O)[C@H](CC(=O)O)NC(=O)[C@H](CO)NC(=O)[C@@H](NC(=O)[C@H](Cc1ccccc1)NC(=O)[C@@H](NC(=O)CNC(=O)[C@@H](N)CCC(=O)O)[C@@H](C)O)[C@@H](C)O)C(C)C)C(=O)N[C@@H](C)C(=O)N[C@@H](Cc1c[nH]c2ccccc12)C(=O)N[C@@H](CC(C)C)C(=O)N[C@H](C(=O)N[C@@H](CCCCN)C(=O)NCC(=O)N[C@@H](CCCNC(=N)N)C(=O)N1CCC[C@H]1C(=O)N[C@@H](CO)C(=O)N[C@@H](CO)C(=O)NCC(=O)N[C@@H](C)C(=O)N1CCC[C@H]1C(=O)N1CCC[C@H]1C(=O)N1CCC[C@H]1C(=O)N[C@@H](CO)C(N)=O)C(C)C` [DGS71], the AUC(0-inf) was 320 ng·h/mL under setting [1] and 2830 ng·h/mL under setting [2]. Moreover, the AUC(0-t) was 307 ng·h/mL under setting [1] and 2810 ng·h/mL under setting [2]. Moreover, the Cmax came out at 1920 ng/mL (in vivo, 0.15 mg/kg) and 15300 ng/mL (in vivo, 1.5 mg/kg). Further, the “Tmax: Time to Cmax” value reads like this: (in vivo, 0.15 mg/kg) 2.50 min; (in vivo, 1.5 mg/kg) 2.50 min. The clearance stood at 7.81 mL/min/kg (in vivo, 0.15 mg/kg) and 8.84 mL/min/kg (in vivo, 1.5 mg/kg). The half-life by setting is: (in vivo, 0.15 mg/kg, T1/2: Terminal phase half-life) 13.6 min; (in vivo, 1.5 mg/kg, T1/2: Terminal phase half-life) 18.3 min; (in vivo, 1.5 mg/kg, half-life) 13.6 to 18.3 min.

`CC[C@H](C)[C@H](NC(=O)[C@H](Cc1ccccc1)NC(=O)[C@H](CCC(=O)O)NC(=O)[C@H](CCCCN)NC(=O)[C@H](C)NC(=O)[C@H](C)NC(=O)[C@H](CCC(N)=O)NC(=O)CNC(=O)[C@H](CCC(=O)O)NC(=O)[C@H](CC(C)C)NC(=O)[C@H](Cc1ccc(O)cc1)NC(=O)[C@H](CO)NC(=O)[C@H](CO)NC(=O)[C@@H](NC(=O)[C@H](CC(=O)O)NC(=O)[C@H](CO)NC(=O)[C@@H](NC(=O)[C@H](Cc1ccccc1)NC(=O)[C@@H](NC(=O)CNC(=O)[C@@H](N)CCC(=O)O)[C@@H](C)O)[C@@H](C)O)C(C)C)C(=O)N[C@@H](C)C(=O)N[C@@H](Cc1c[nH]c2ccccc12)C(=O)N[C@@H](CC(C)C)C(=O)N[C@H](C(=O)N[C@@H](CCCCN)C(=O)NCC(=O)N[C@@H](CCCNC(=N)N)C(=O)N1CCC[C@H]1C(=O)N[C@@H](CO)C(=O)N[C@@H](CO)C(N)=O)C(C)C` [DGS72]: the “Kel: Elimination rate constant” value by setting is: (0.15 mg/kg single i.v. bolus, male Sprague Dawley rats, plasma) 0.139 min⁻¹; (1.5 mg/kg single i.v. bolus, male Sprague Dawley rats, plasma) 0.071 min⁻¹. The half-life runs as follows: (in vivo, 0.15 mg/kg, 0.15 mg/kg single i.v. bolus, male Sprague Dawley rats, plasma, read-out: T1/2: Terminal phase half-life) 4.99 min; (in vivo, 1.5 mg/kg, 1.5 mg/kg single i.v. bolus, male Sprague Dawley rats, plasma, read-out: T1/2: Terminal phase half-life) 9.72 min; (in vivo, 1.5 mg/kg, range over the 0.15 and 1.5 mg/kg i.v. groups, rats, summary of Table 1, read-out: half-life) 4.99 to 9.72 min. Moreover, the clearance turned out to be 14.4 mL/min/kg (in vivo, 0.15 mg/kg single i.v. bolus, male Sprague Dawley rats, plasma, read-out: CL: Clearance) and 13.6 mL/min/kg (in vivo, 1.5 mg/kg single i.v. bolus, male Sprague Dawley rats, plasma, read-out: CL: Clearance). In addition, the Cmax runs as follows: (in vivo, 0.15 mg/kg single i.v. bolus, male Sprague Dawley rats, plasma, read-out: Cmax: The highest observable concentration) 2100 ng/mL; (in vivo, 1.5 mg/kg single i.v. bolus, male Sprague Dawley rats, plasma, read-out: Cmax: The highest observable concentration) 19300 ng/mL. The Vd runs as follows: (in vivo, 0.15 mg/kg single i.v. bolus, male Sprague Dawley rats, plasma) 0.0882 L/kg; (in vivo, 1.5 mg/kg single i.v. bolus, male Sprague Dawley rats, plasma) 0.0847 L/kg. The AUC(0-t) runs as follows: (0.15 mg/kg single i.v. bolus, male Sprague Dawley rats, plasma, read-out: AUC0-t: area under the plasma concentration versus time-curve from time zero to last time point (converted)) 171 ng·h/mL; (1.5 mg/kg single i.v. bolus, male Sprague Dawley rats, plasma, read-out: AUC0-t: area under the plasma concentration versus time-curve from time zero to last time point (converted)) 1840 ng·h/mL. The AUC(0-inf) (0.15 mg/kg single i.v. bolus, male Sprague Dawley rats, plasma, read-out: AUC0-∞: area under the plasma concentration versus time curve from time zero to infinity (converted)) is 173 ng·h/mL and the AUC(0-inf) (1.5 mg/kg single i.v. bolus, male Sprague Dawley rats, plasma, read-out: AUC0-∞: area under the plasma concentration versus time curve from time zero to infinity (converted)) was 1840 ng·h/mL.

The values are drawn from patent publication US20110245173A1, “Long-Acting GLP-1 Derivatives, and Methods of Treating Cardiac Dysfunction” (priority 2008, published 2011).
